{"sequences": {"note": "Protein sequences, listed by entry. Tags and fused reporters are not part of them.", "UniProt P49137, whole entry": "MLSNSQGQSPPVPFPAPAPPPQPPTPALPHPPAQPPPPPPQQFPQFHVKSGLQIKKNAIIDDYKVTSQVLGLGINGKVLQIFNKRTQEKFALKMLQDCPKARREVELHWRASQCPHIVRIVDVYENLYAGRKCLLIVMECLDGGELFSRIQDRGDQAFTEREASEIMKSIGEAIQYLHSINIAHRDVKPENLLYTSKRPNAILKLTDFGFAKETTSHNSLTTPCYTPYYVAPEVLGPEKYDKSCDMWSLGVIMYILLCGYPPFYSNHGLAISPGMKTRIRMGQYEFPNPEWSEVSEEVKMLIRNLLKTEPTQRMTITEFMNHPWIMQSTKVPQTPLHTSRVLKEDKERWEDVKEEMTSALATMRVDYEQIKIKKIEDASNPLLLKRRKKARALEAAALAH"}, "source": "patent US7473694B2", "about": "“Pyrazolopyrimidine derivatives or pharmaceutically acceptable salts thereof” (Teijin Pharma Limited, priority 2005, dated 2009)", "target": "recombinant human MAPKAP-K2 (Homo sapiens, UniProt P49137)", "assay": "Inhibition of MAPKAP-K2 enzyme activity (33P-ATP peptide substrate phosphorylation)", "conditions": "read-out: Activity strength (IC50 against MAPKAP-K2); recombinant human MAPKAP-K2 10 mU, room temperature 30 min, peptide substrate Lys-Lys-Leu-Asn-Arg-Thr-Leu-Ser-Val-Ala", "experimental": "General Measurement Method for Determining Inhibition of MAPKAP-K2 Enzyme Activity\n(Preparation of Solutions of Compounds)\nEach compound was dissolved to DMSO to prepare a solution with a concentration of 20 mmol/L and this solution was stored at −20° C. This stock solution was diluted with DMSO successively to prepare solutions with 200-fold concentrations of a necessary range. These solutions were further diluted with water at a ratio of 1:20 to prepare solutions with 10-fold concentrations of a necessary range. Each of these solutions (5 μL) was used for each reaction in 50 μL-scale. Through the dilution series of all compounds, the final DMSO concentration was kept at 0.5%. […]\nTo a DMSO solution (5 μL) containing a test compound at 5%, a solution (25 μL) containing a peptide substrate [peptide substrate […], ATP 20 μmol/L, Tris buffer 60 mmol/L (pH 7.5), EGTA 0.2 mmol/L, β-mercaptoethanol 0.2%, magnesium acetate 20 mmol/L, [γ-33P]ATP 0.1 μCi (specific radioactivity ca. 110 TBq/mmol)] was added. […] After the plate was dried, 30 μL of MicroScint™-O (Perkin-Elmer) was added here, and the radioactivity (cpm) was measured on a scintillation counter to determine the inhibitory activity. […]"}
{"smiles": "CCOc1ccc(Nc2c3c(nc4ccnn24)N(C2CCCNC2)CC3)cc1", "note": "(stereo not shown)", "values": [{"measurement": "IC50", "value": "< 10", "unit": "µM"}]}
